Assay results reported in article PMC11765717, “In Vitro Insights into Bacteriocin-Mediated Modulation of Chicken Cecal Microbiota” (International Journal of Molecular Sciences, 2025).

Experiments:
[1] = test system: chicken cecal microbiota; experiment: Batch fermentation of chicken cecal microbiota, 16S rRNA gene sequencing; format: cell-based, broiler chickens
[2] = test system: Salmonella enterica subsp. enterica serotype Newport ATCC 6962
[3] = test system: Salmonella enterica subsp. enterica serotype Newport ATCC 6962; experiment: Residual activity in cecal fermentation medium, agar well diffusion; settings: over the 24 h of fermentation; agar diffusion tests

O=C(O)c1cn(C2CC2)c2cc(N3CCNCC3)c(F)cc2c1=O [Ciprofloxacin]
Relative abundance of Escherichia, in words [1]: dropped
Relative abundance of Gammaproteobacteria ([1]; at both concentrations): 0.03
Residual Activity 6 h [2]: +++ +++
Residual Activity 12 h [2]: +++ +++
Stability of inhibitory activity in batch fermentation, in words [3]: remained highly active
